{"source": "paper PMC5641599", "about": "(Molecular Metabolism, 2017)", "origin": "cited, not measured here", "system": "MC4R variants", "settings": "cited from earlier work", "note": "Read-outs that look alike come from different tables or passages of the source.", "data": [{"substance": "NDP-MSH", "values": [{"measurement": "cAMP Emax - Ligand no.3 (% of WT)", "setting": "MC4R A154D, ref Tao YX, J Clin Endocrinol Metab, 2005", "value": "126.0 % of WT"}, {"measurement": "cAMP Emax - Ligand no.3 (% of WT)", "setting": "MC4R A175T, ERK1/2 pathway assay, ref Alfieri A, Gene, 2010", "value": "40.0 % of WT"}, {"measurement": "cAMP Emax - Ligand no.3 (% of WT)", "setting": "MC4R A219V, ref Fan ZC, J Cell Mol Med, 2009", "value": "56.0 % of WT"}, {"measurement": "cAMP Emax - Ligand no.3 (% of WT)", "setting": "MC4R A244V, COS-7 cell line, ref Reinehr T, Obesity, 2009", "value": "118.6 % of WT"}, {"measurement": "cAMP Emax - Ligand no.3 (% of WT)", "setting": "MC4R C172R, ref Hohenadel MG, Int J Obes, 2014", "value": "32.9 % of WT"}, {"measurement": "cAMP Emax - Ligand no.3 (% of WT)", "setting": "MC4R C271R, COS-7 cell line, ref Tarnow P, J Biol Chem, 2003", "value": "71.5 % of WT"}, {"measurement": "cAMP Emax - Ligand no.3 (% of WT)", "setting": "MC4R F202L, COS-7 cell line, ref Hughes DA, Hum Genet, 2009", "value": "83.0 % of WT"}, {"measurement": "cAMP Emax - Ligand no.3 (% of WT)", "setting": "MC4R F202L, ref Hohenadel MG, Int J Obes, 2014", "value": "126.0 % of WT"}, {"measurement": "cAMP Emax - Ligand no.3 (% of WT)", "setting": "MC4R F202L, ref Tao YX, J Clin Endocrinol Metab, 2005", "value": "89.0 % of WT"}, {"measurement": "cAMP Emax - Ligand no.3 (% of WT)", "setting": "MC4R F261S, ref Fan ZC, J Cell Mol Med, 2009", "value": "49.0 % of WT"}, {"measurement": "cAMP Emax - Ligand no.3 (% of WT)", "setting": "MC4R G181D, ref Xiang Z, Biochemistry, 2010", "value": "0.0 % of WT"}, {"measurement": "cAMP Emax - Ligand no.3 (% of WT)", "setting": "MC4R H158R, COS-7 cell line, ref Hinney A, J Clin Endocrinol Metab, 2006", "value": "135.0 % of WT"}, {"measurement": "cAMP Emax - Ligand no.3 (% of WT)", "setting": "MC4R I125K, ref Xiang Z, Biochemistry, 2006", "value": "0.0 % of WT"}, {"measurement": "cAMP Emax - Ligand no.3 (% of WT)", "setting": "MC4R I137T, ref Gu W, Diabetes, 1999", "value": "65.0 % of WT"}, {"measurement": "cAMP Emax - Ligand no.3 (% of WT)", "setting": "MC4R I170V, COS-7 cell line, ref Hughes DA, Hum Genet, 2009", "value": "98.0 % of WT"}, {"measurement": "cAMP Emax - Ligand no.3 (% of WT)", "setting": "MC4R I170V, ref Tao YX, Endocrinology, 2003", "value": "147.0 % of WT"}, {"measurement": "cAMP Emax - Ligand no.3 (% of WT)", "setting": "MC4R I269N, ref Hohenadel MG, Int J Obes, 2014", "value": "131.1 % of WT"}, {"measurement": "cAMP Emax - Ligand no.3 (% of WT)", "setting": "MC4R M200V, COS-7 cell line, ref Hinney A, J Clin Endocrinol Metab, 2006", "value": "78.0 % of WT"}, {"measurement": "cAMP Emax - Ligand no.3 (% of WT)", "setting": "MC4R M200V, ref Tao YX, J Clin Endocrinol Metab, 2005", "value": "104.0 % of WT"}, {"measurement": "cAMP Emax - Ligand no.3 (% of WT)", "setting": "MC4R M208V, ref Hohenadel MG, Int J Obes, 2014", "value": "113.9 % of WT"}, {"measurement": "cAMP Emax - Ligand no.3 (% of WT)", "setting": "MC4R M218T, ref Rong R, Clin Endocrinol, 2006", "value": "93.0 % of WT"}, {"measurement": "cAMP Emax - Ligand no.3 (% of WT)", "setting": "MC4R N240S, ref Tao YX, J Clin Endocrinol Metab, 2005", "value": "72.0 % of WT"}, {"measurement": "cAMP Emax - Ligand no.3 (% of WT)", "setting": "MC4R P230L, ref Fan ZC, J Cell Mol Med, 2009", "value": "122.0 % of WT"}, {"measurement": "cAMP Emax - Ligand no.3 (% of WT)", "setting": "MC4R Q156R, COS-7 cell line, ref Hinney A, J Clin Endocrinol Metab, 2006", "value": "79.0 % of WT"}, {"measurement": "cAMP Emax - Ligand no.3 (% of WT)", "setting": "MC4R R165G, ref Hohenadel MG, Int J Obes, 2014", "value": "135.5 % of WT"}, {"measurement": "cAMP Emax - Ligand no.3 (% of WT)", "setting": "MC4R R165Q, ref Hohenadel MG, Int J Obes, 2014", "value": "142.7 % of WT"}, {"measurement": "cAMP Emax - Ligand no.3 (% of WT)", "setting": "MC4R R236H, COS-7 cell line, ref Hinney A, J Clin Endocrinol Metab, 2006", "value": "105.0 % of WT"}, {"measurement": "cAMP Emax - Ligand no.3 (% of WT)", "setting": "MC4R S136F, COS-7 cell line, ref Tarnow P, Obes Facts, 2008", "value": "14.0 % of WT"}, {"measurement": "cAMP Emax - Ligand no.3 (% of WT)", "setting": "MC4R S136F, ref Fan ZC, J Cell Mol Med, 2009", "value": "11.0 % of WT"}, {"measurement": "cAMP Emax - Ligand no.3 (% of WT)", "setting": "MC4R S191T, COS-7 cell line, ref Hughes DA, Hum Genet, 2009", "value": "99.0 % of WT"}, {"measurement": "cAMP Emax - Ligand no.3 (% of WT)", "setting": "MC4R T162R, COS-7 cell line, ref Ochoa MC, Clin Endocrinol, 2007", "value": "104.0 % of WT"}, {"measurement": "cAMP Emax - Ligand no.3 (% of WT)", "setting": "MC4R V166I, COS-7 cell line, ref Hinney A, J Clin Endocrinol Metab, 2006", "value": "122.0 % of WT"}, {"measurement": "cAMP Emax - Ligand no.3 (% of WT)", "setting": "MC4R V166I, COS-7 cell line, ref Hughes DA, Hum Genet, 2009", "value": "122.0 % of WT"}, {"measurement": "cAMP Emax - Ligand no.3 (% of WT)", "setting": "MC4R W174C, ERK1/2 pathway assay, ref Alfieri A, Gene, 2010", "value": "0.0 % of WT"}, {"measurement": "cAMP Emax - Ligand no.3 (% of WT)", "setting": "MC4R W174C, ref Fan ZC, J Cell Mol Med, 2009", "value": "31.0 % of WT"}, {"measurement": "cAMP Emax - Ligand no.3 (% of WT)", "setting": "MC4R W174C, ref Xiang Z, Biochemistry, 2010", "value": "0.0 % of WT"}, {"measurement": "cAMP Emax - Ligand no.3 (% of WT)", "setting": "MC4R Y157S, ref Tao YX, Endocrinology, 2003", "value": "25.0 % of WT"}]}]}
